Source: publication PMC12125552

Tests used:
[1] = target: DdMyo7 short heavy meromyosin forced-dimer GFP (shHMM-FD-GFP) (Dictyostelium | not stated)
[2] = target: DdMyo7 short heavy meromyosin forced-dimer GFP (shHMM-FD-GFP) (Dictyostelium | not stated); test: co-IP; as a2, but the resin washed in IP wash buffer + 2 mM CaCl2 (+Ca2+); immunoblot signal normalised for gel load and heavy chain abundance
[3] = target: DdMyo7 long heavy meromyosin (lnHMM), FLAG-tagged (Dictyostelium); test: co-IP; lnHMM (FLAG) precipitated with anti-Flag beads from a MgATP-released, myosin-enriched cytoskeletal fraction of talA null cells; washed in Flag buffer (25 mM Hepes pH 7.4, 300 mM NaCl, 10 mM MgCl2 and 5 mM EGTA, or 2 mM CaCl2); eluted with Flag peptide; gel stained with Coomassie or Sypro Ruby, densitometry normalised to molecular weights; lower band identified by mass spectrometry

velocity of shHMM-FD on F-actin (TIRF motility assay) with 100 μM free Ca2+, against 40.7 nm/s without Ca2+ [1]: 23.6 nm/s | reduction of immunoblot signal with Ca2+ [2]: 99.7% | stoichiometry N [3]: 2.08 CalA per HC
Substance: Dictyostelium calmodulin CalA (from UniProt P02599 1-152) (natural protein)
